{"sequences": {"note": "Sequences of proteins named here, by UniProt entry; tags and fusion partners are left off.", "UniProt Q9Y3Z3, whole entry": "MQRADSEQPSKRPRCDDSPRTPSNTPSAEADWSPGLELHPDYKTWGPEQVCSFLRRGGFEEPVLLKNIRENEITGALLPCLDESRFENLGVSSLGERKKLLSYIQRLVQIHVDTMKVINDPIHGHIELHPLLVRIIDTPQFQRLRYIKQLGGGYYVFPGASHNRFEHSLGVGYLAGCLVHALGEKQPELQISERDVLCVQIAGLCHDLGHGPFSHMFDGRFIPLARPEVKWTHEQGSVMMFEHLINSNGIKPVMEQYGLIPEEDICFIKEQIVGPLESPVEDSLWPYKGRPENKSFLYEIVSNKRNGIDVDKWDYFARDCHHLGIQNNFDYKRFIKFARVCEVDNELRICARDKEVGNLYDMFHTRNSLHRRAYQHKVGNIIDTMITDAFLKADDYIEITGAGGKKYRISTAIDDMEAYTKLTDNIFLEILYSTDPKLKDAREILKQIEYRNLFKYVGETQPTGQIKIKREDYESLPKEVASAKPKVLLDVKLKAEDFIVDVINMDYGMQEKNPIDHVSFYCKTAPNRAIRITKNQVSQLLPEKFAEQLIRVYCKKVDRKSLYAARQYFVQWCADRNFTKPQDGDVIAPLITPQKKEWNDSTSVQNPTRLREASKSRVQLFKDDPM"}, "source": "ChEMBL document CHEMBL5483193", "about": "“Identification and evaluation of small-molecule inhibitors against the dNTPase SAMHD1 via a comprehensive screening funnel” (iScience, 2024)", "note": "Only a part is listed here, and it is no random draw."}
{"target": "Deoxynucleoside triphosphate triphosphohydrolase SAMHD1 (Homo sapiens) (UniProt Q9Y3Z3)", "assay": "Compound was evaluated for the inhibition of human recombinant SAMHD1 at 5uM in a enzyme-coupled malachite green assay; call rule not given here"}
{"smiles": "CN(CCCl)CCCl", "inhibition": "inactive: 19.8%"}
